The values that follow come from patent US20140205583A1, “USE OF PLP WITH PEG-rMETase IN VIVO FOR ENHANCED EFFICACY” (AntiCancer, Inc., priority 2003, published 2014).

Values joined by “and” are separate entries in the source; they are usually repeats but may differ in a detail not shown here. Equal values may be shown once.

Series [1] in a line: Pharmacokinetics: plasma enzyme activity following intravenous injection of naked and PEGylated rMETase in mice. It is filed as in vivo, Athymic nude (nu/nu) mice. As to the method: rMETase activity was determined from α-ketobutyrate produced from L-methionine according to the method of Tanaka, H., et al., Biochemistry (1977) 16:100-106, with slight modification. 0.5 ml of sample diluted in 100 mM potassium phosphate buffer pH 8.0, containing 0.01% DTT, 1 mM EDTA Nae, 10 μM PLP and 0.05% Tween 80, was mixed with 0.5 ml of substrate solution containing 100 mM potassium phosphate buffer, pH 8.0, containing 25 mM L-methionine and 10 μM PLP in a glass test tube. The reaction mixture was vortexed immediately and incubated at 37° C. without shaking for precisely 10 minutes. The reaction was stopped by adding 0.5 ml of 50% TCA. The suspension was centrifuged at 13,000 rpm for 2 minutes. The supernatant (0.5 ml) was collected in a glass tube containing 1 ml 1 M acetate buffer, pH 5.0. […] The absorbance of the reaction mixture was measured at 320 nm. The assay was carried out in triplicate. ΔE was calculated by subtracting the average absorbance of blanks from the average absorbance of the reaction mixture. The enzyme activity was calculated by the following equation: Activity (U/ml)=0.548 (1.07+2.2ΔE) ΔE. […]
Athymic nude (nu/nu) mice aged 4 weeks (20-25 g) were used for the study with 4 mice per group. […] The plasma enzyme activity, methionine concentration and PLP level in the plasma, collected at the different time points, were measured as described above. […]

The subject of series [2] is plasma anti-rMETase specific antibody. Nature of the series: Plasma anti-rMETase antibody titer by sandwich ELISA after immunization with FCA. It is filed as in vivo, BALB/c male mice. Conditions: mice immunized i.p. with 200 μg in FCA, figures in parentheses = numbers of mice. On the procedure: BALB/c male mice were grouped randomly at 5 per group. Each mouse received three i.p. injections of 0.2 ml (200 μg) naked or PEG-rMETase emulsified in Freund's complete adjuvant (FCA) at weekly intervals. Two weeks following the last injection, a booster injection of the rMETase or PEG-rMETase was given to each mouse. Blood samples were collected two weeks after the booster injection, and plasma was separated and stored at −80° C.
Plasma anti-rMETase antibody was measured using a sandwich ELISA technique. 100 μl 200 μg/ml rMETase in 0.1 M carbonate coating buffer, pH 9.5, was added to each well of a 96-well microplate and incubated at 4° C. overnight. The plate was washed three times with PBS washing buffer, pH 7.4, containing 0.05% Tween-20, and blocked for 2 hours at room temperature with 200 μl of PBS assay buffer, pH 7.4, containing 10% FBS. After washing three times, 100 μl of 10-fold serial dilutions of the plasma samples in PBS assay buffer were added to appropriate wells and incubated for 2 hours at room temperature, followed by washing. 100 μl optimally diluted goat anti-mouse IgG and IgM subtypes conjugated with horseradish peroxidase (SIGMA, St. Louis, Mo., USA) were added to each well. The plate was incubated for 1 hour at room temperature and washed three times. 100 μl substrate solution containing O-phenylenediamine dihydrochloride (OPD) and hydrogen peroxide (SIGMA, St. Louis, Mo., USA) were added to each well, followed by 30 min incubation at room temperature. 50 μl 2N sulfuric acid were added to each well to stop the color reaction. The absorbance of each well was measured at 492 nm. The antibody titer was determined as the highest plasma dilution at which the extinction at 492 nm generated in the well of the immune plasma exceeded twice the extinction generated in those wells with negative control plasma.
IgG and IgM anti-rMETase antibody titers of the plasma of the mice immunized with naked or indicated PEGylated rMETase in the presence of FCA were determined using ELISA as described in the Materials and Methods. The figures in parentheses represents the numbers of mice.
Background: In an ELISA, binding on a coated surface is turned into a signal by an enzyme label.

The conditions of series [3]: Shionogi Lot No. 8Y003, 50 mM sodium phosphate pH 7.2, 10 μM PLP; cited from earlier work.

“L-methionine α-deamino-γ-mercaptomethane lyase [Naked rMETase]”: in series [1] (80 U i.v. per mouse, calculated from plasma enzyme activity-time profiles), the “Plasma half-life in mice” value was 2 h. For the same substance, the “Plasma enzyme activity 24 hours after injection” value in series [1] (80 units per mouse i.v.) is “undetectable”. Moreover, in series [2], the “Plasma anti-rMETase specific IgG antibody titer” value is 10^−8 (5); the “Plasma anti-rMETase specific IgM antibody titer” value is 10^−4 (4) and 10^−5 (1). Also, in series [2] (listed as naked rMETase), the “Plasma anti-rMETase specific IgG antibody titer” value was 10^−8 and the “Plasma anti-rMETase specific IgM antibody titer” value is given as 10^−4. Also, in series [3], the Specific activity is reported as 50.7 U/mg.
